Test results published in publication PMC7077846 (PLoS Biology, 2020).

Target: T1, human proteasome activator 200 (PA200) (human, UniProt Q14997)
T1 construct: Carries the cofactors 5,6[PP]2-InsP4 and InsP6 in its two openings; The results say 1,844 residues, the methods 1-1,843; source: Trichoplusia ni (Hi5) insect cells, baculovirus (Bac-to-Bac), purified (Ni-NTA, gel filtration on Superose 6)
Assay: cryo-EM structure; 3 μl 20S-CP (approximately 1.4 mg/ml) incubated with 6 μl PA200 (approximately 0.44 mg/ml) in ice for 1 h; single-capped PA200-20S particles selected; 2.72 Å
Conditions: both partners purified

binding result: binds
B1: human 20S proteasome subunit α6 (natural protein)
chain: MFRNQYDNDVTVWSPQGRIHQIEYAMEAVKQGSATVGLKSKTHAVLVALKRAQSELAAHQKKILHVDNHIGISIAGLTADARLLCNFMRQECLDSRFVFDRPLPVSRLVSLIGSKTQIPTQRYGRRPYGVGLLIAGYDDMGPHIFQTCPSANYFDCRAMSIGARSQSARTYLERHMSEFMECNLNELVKHGLRALRETLPAEQDLTTKNVSIGIVGKDLEFTIYDDDDVSPFLEGLEERPQRKAQPAQPADEPAEKADEPMEH
notes: 20S proteasome subunit α6, human; named only as α6; Stood in the experiment as a subunit of the whole 20S core particle; source: bought: Boston Biochem, as part of the human 20S proteasome
